Measurements reported in ChEMBL document CHEMBL1132364, “Structure-activity relationship of N-(phenylalkyl)cinnamides as novel NR2B subtype-selective NMDA receptor antagonists” (J Med Chem, 1999).

Chains of the proteins cited; added tags and fusions are not shown.
UniProt Q00960, whole entry: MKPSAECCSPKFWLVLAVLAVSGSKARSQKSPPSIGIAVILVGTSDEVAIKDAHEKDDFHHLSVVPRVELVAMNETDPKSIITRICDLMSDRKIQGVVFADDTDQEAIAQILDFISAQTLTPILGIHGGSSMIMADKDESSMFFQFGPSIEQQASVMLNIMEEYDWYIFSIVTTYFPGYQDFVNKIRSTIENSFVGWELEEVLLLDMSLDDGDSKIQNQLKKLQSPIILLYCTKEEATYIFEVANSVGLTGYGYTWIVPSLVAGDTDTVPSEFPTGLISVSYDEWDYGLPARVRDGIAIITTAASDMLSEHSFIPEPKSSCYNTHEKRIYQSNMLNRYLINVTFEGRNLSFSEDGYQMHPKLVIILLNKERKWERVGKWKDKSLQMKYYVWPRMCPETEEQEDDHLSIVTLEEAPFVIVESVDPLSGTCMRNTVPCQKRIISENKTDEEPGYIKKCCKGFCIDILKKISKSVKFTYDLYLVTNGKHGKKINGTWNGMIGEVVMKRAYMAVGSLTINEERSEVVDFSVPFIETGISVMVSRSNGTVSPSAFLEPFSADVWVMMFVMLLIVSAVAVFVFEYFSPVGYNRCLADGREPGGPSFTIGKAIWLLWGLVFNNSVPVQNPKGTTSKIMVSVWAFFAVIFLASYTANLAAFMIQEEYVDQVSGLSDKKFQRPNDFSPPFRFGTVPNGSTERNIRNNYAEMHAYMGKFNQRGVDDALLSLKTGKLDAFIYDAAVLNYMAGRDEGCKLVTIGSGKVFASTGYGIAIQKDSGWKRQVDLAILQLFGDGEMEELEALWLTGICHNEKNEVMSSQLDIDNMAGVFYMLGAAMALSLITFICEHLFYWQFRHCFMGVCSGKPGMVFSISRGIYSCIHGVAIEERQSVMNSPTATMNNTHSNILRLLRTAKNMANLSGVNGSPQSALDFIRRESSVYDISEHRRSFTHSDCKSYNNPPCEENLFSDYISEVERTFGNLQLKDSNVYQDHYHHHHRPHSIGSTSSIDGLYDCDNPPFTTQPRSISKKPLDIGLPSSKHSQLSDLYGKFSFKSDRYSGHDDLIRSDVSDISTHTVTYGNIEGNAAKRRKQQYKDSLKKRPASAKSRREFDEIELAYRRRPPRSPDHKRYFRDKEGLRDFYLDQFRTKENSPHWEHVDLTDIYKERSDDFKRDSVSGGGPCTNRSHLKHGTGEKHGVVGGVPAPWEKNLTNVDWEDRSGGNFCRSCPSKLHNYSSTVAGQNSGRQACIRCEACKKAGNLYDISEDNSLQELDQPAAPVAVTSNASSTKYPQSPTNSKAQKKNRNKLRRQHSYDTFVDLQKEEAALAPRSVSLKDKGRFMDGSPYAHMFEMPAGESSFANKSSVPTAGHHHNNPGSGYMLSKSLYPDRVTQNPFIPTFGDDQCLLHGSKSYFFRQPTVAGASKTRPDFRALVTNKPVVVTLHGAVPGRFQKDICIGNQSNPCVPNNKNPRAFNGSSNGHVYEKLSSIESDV

Target: Glutamate NMDA receptor; Grin1/Grin2b (Rattus norvegicus, UniProt P35439+Q00960)
Experiment: Antagonistic activity against N-methyl-D-aspartate glutamate receptor 1/2B.
Type: functional

Compound: O=C(/C=C/c1ccc(O)cc1)N1CCC(Cc2ccccc2)CC1
- IC50: 120 nM
